One molecule from patent publication US20250234824A1, “MARKERS ASSOCIATED WITH S[…]” (Syngenta Crop Protection AG, priority 2022, published 2025) can be followed below.

The assay concerns maize haploids. Kind of assay: Colchicine doubling treatment of BC3 haploids, pollen and kernel phenotypes in the field. As to conditions: colchicine-treated haploids. Format: in vivo. The source says: To test whether the SCD-QTL1 could be used in combination with a chemical doubling treatment, such as colchicine, and have an additive effect on haploid male fertility, we took the 17 elite BC2 lines from Example 6 through one additional backcross generation to produce a BC3. Genotyping was used to identify heterozygotes at SCD-QTL1, and those materials were then crossed by a haploid inducer, embryos isolated from the immature ears, and haploids regenerated for transplant into the field. Immediately after isolation, embryos from each of the 17 BC3 populations were split into 2 treatment groups. […] Thus, there were 4 treatment groups to compare within each elite BC3 population: (1) SCD-QTL1 with colchicine (haploid male fertility plus colchicine), (2) unfavorable QTL allele with colchicine (positive control), (3) SCD-QTL1 without colchicine (haploid male fertility alone), (4) and unfavorable QTL allele without colchicine (negative control). All lines were planted across three replications of the trial over the course of approximately 6 months, and the data was pooled for analysis.
In this trial, sample sizes were large enough (minimum of 50 haploids per treatment group) to enable statistical analysis to confirm whether observed differences in kernel set between groups with and without the favorable allele of SCD-QTL1 were statistically significant using a Student's T-Test (Table 8). […] In double-haploid production, a key metric for success is the number of individual haploids that produce ears with greater than 5 kernels per ear with a colchicine treatment.

Molecules are shown by their SMILES.

For `COc1cc2c(c(OC)c1OC)-c1ccc(OC)c(=O)cc1[C@@H](NC(C)=O)CC2` [Colchicine, colchicine], the “Percent of Plants with Ears >5 kernels” value runs as follows: (BC3 recurrent parent Line 8, Unfavorable Allele) 32.0%; (BC3 recurrent parent Line 9, SCD Allele) 36.0%; (BC3 recurrent parent Line 16, SCD Allele) 34.1%.
